AlphaSeq binding of Ab-91 heavy chain variants to a spike HR2 peptide

Source: Engelhart et al. 2022 (doi:10.1038/s41597-022-01779-4), MIT Lincoln Laboratory and A-Alpha Bio; data file from the FLAb repository.

The target is the same throughout: PDVDLGDISGINAS, from the HR2 region of SARS-CoV-2 spike.

Ab-91 is the parent antibody, in scFv form: VL, then the linker GGGGSGGGGSGGGGS, then VH. The light chain is unchanged in all variants.
VL: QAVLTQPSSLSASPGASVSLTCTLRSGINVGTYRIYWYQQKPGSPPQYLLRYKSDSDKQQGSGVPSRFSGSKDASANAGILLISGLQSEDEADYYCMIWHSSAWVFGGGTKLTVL
VH: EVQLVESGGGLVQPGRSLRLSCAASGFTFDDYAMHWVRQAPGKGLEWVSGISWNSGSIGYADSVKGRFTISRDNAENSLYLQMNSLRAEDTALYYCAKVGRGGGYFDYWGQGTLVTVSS

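The starting antibody came from a phage panning campaign against this peptide. AAYL51 was designed without a model: most single CDR substitutions and a random sample of double and triple ones. Affinity was read by AlphaSeq, a pooled yeast mating assay with surface-displayed partners. Binding brings cells together so that they mate, and sequencing counts the barcode pairs among the diploids. The ratio of observed to expected reads was calibrated, replicate by replicate, on BCL2-family standards whose Kd was known from biolayer interferometry. The assay was run in three technical replicates.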

Each variant is given by its three heavy chain CDRs, as the data file delimits them; those of the parent are GFTFDDYAMH, GISWNSGSIGYADSVK, VGRGGGYFDY. The read-out is the apparent dissociation constant on a log10 scale (nM): the lower, the stronger. An entry "ND" has no value in the source: the pair was not observed among the diploids in that replicate. This suggests poor binding but is not conclusive.

| CDR-H1 | CDR-H2 | CDR-H3 | replicates, log10 nM | signal with controls |
|---|---|---|---|---|
| GFTFDDYAMH | GISWNSGSIGMADSVK | VHQGGGYFDY | ND ND ND | 0/9 |
| GFTFDDYAMH | GISWNSGSIGYADSFK | VGRGGGYHDA | ND ND ND | 1/9 (3.42) |
| LFTFDDYAMH | GISWNSGSIGYADSVK | VGRGGGYFDY | ND ND ND | 4/9 (5.13) |
| SFTFSDYAMH | GISWNSGSIGHADSVK | VGRGGGYFDY | 4.94 ND 5.06 | 2/9 (4.07) |
| PFTFDDYAMH | GISWNSGSIHYADSVK | PGRGGGYFDY | ND ND ND | 1/9 (4.07) |
| GFTFDDYAMH | GISWNSISIPYADSKK | VGRGGGYFDY | ND ND ND | 0/9 |
| GFTHDDYAMH | GISWNSGSIGYADSVK | VPRGGGQFDY | ND ND 5.36 | 2/9 (4.39) |
| GFTFDDYAMH | GISWESGSIGYANSVK | WGRGGGYFDY | ND ND 4.75 | 4/9 (4.11) |
| GFTFDDYAMH | GISWESGSIGYADSVK | VGRHGGYFDY | ND ND ND | 0/9 |
| GFTFDDYAEH | GISWNSGSFGYADSVK | VARGGGYFDY | ND ND ND | 1/9 (4.14) |
| GFRFDDYAMH | GISWHSGSIGYADSVK | TGRGGGYFDY | 4.52 5.22 5.12 | 8/9 (5.56) |
| GFTFHDYAMH | GISWNSGSIGRADSVK | VGRGGGYFDY | ND ND ND | 0/9 |
| GFCFDDYAMH | GISWNMGSIGYADSVK | VGRGCGYFDY | 5.45 ND 3.82 | 2/9 (5.20) |
| GFTFPDYNMH | GISWNSGSIGYADSVK | VGRGGGYFDY | 5.07 ND ND | 2/9 (4.24) |
| GFTFDDYAMH | GISWNSTSIGYVDSVK | VGRTGGYFDY | ND ND ND | 0/9 |
| GFTFDDYFMH | GISWNSGSIGWADSVK | GGRGGGYFDY | ND ND ND | 0/9 |
| GFTFDDYAMH | GIIWNSISIGYADSVK | VGRGGGYFDY | ND ND ND | 0/9 |
| GFTDDDYAMH | GISWNSGSIGYADWVK | VGRGGGYFKY | 4.13 5.23 ND | 4/9 (5.44) |
| GQTFDDYAMH | GISWNSGSIGYADSVK | VGWGGYYFDY | 5.62 4.79 5.72 | 5/9 (4.84) |
| TFTTDDYAMH | GISWNSGSIGYADSVK | FGRGGGYFDY | 4.38 ND ND | 1/9 (4.52) |
| GFTNDDYAMH | CISWNSGSIGYADSVK | VGRGGGDFDY | ND ND ND | 0/9 |
| GFTFDDYAMH | GISWNRGYIGYADSDK | VGRGGGYFDY | 4.66 3.64 ND | 0/9 |
| GFTFDDYTMH | GISWNSGSIGYADSVK | VGFGGGYFDR | 4.48 ND 5.07 | 4/9 (4.38) |
| GFGFDDYAMH | GISWNSRSIGYAMSVK | VGRGGGYFDY | 6.01 5.73 4.46 | 1/9 (4.05) |
| GFTCDDYAQH | GISWNSGSIGYYDSVK | VGRGGGYFDY | ND ND ND | 0/9 |
| GFTFDDYAMH | GISWYSGSIGYADSVK | VGRTYGYFDY | ND ND ND | 0/9 |
| GFTFDDYAMH | GISWNSGSYGYADSVK | VGRGGGYFDY | 1.40 1.53 0.99 | 5/9 (4.73) |
| GFTFDQYAMH | GISWNSGSITYADSVK | VGRGDGYFDY | ND ND ND | 1/9 (3.22) |
| GFTFDDYAMH | GISYNSGPIGYADSVK | VGRGGGYFDY | ND 4.01 5.04 | 2/9 (4.84) |
| GFTFDDYAMH | GISWNSGSIGEADSVK | VGRGMGYFVY | 3.47 3.01 3.26 | 6/9 (5.20) |
| GWTFDDYAMH | GISWMSGSIGYATSVK | VGRGGGYFDY | 4.40 ND ND | 1/9 (3.95) |
| GDTFDDYAMH | GISWNSGSVGYADSVK | YGRGGGYFDY | ND ND ND | 0/9 |
| GFTFDDYAMM | GDSWNSGSIGYDDSVK | VGRGGGYFDY | ND 5.07 ND | 0/9 |
| GFTFDDYAMH | GISWNSGSIGYADSVK | VGRGGGYNIV | 3.88 ND ND | 3/9 (4.00) |
| GFTFDDPIMH | GISWNSGSIGRADSVK | VGRGGGYFDY | ND 6.25 5.91 | 3/9 (4.73) |
| GETFDDYAMH | GISWNSGSILYADSVK | VWRGGGYFDY | ND 4.70 ND | 3/9 (4.11) |
| GRTFFDYAMH | GNSWNSGSIGYADSVK | VGRGGGYFDY | 4.30 ND 5.43 | 3/9 (5.04) |
| GFTFDDYAMH | GISGNSGSIGYADSVK | VGRGSGYFDY | 4.75 5.11 ND | 2/9 (4.47) |
| GFTFDDYAMH | GISWNVGSIGYADFVK | VGRGGGYFDY | ND ND ND | 0/9 |
| GFCFDDYAMG | GISSNSGSIGYADSVK | VGRGGGYFDY | 4.47 ND ND | 5/9 (4.91) |
| GFTFDDYAMH | GISWNSWSYGYANSVK | VGRGGGYFDY | 3.69 3.10 ND | 0/9 |
| GFTFGDSAMH | GISWNSGSIGYADSVK | VGRGGGQFDY | 2.21 2.03 1.62 | 5/9 (4.58) |
| GFTFDDYNMH | GISWNSGSIGYADSVK | VGRGGGGFDG | 4.68 6.40 ND | 5/9 (4.58) |
| GFTFIGHAMH | GISWNSGSIGYADSVK | VGRGGGYFDY | ND ND ND | 0/9 |
| GFTFDDYFMH | GISWNSGSIGYASSVK | VGRGGGQFDY | ND ND ND | 0/9 |
| GFTNDDYAMH | GISWNSISIGYADSVK | VGRGGGIFDY | ND 4.90 ND | 0/9 |
| GSDFDDYAMH | KISWNSGSIGYADSVK | VGRGGGYFDY | ND ND ND | 0/9 |
| GFTFDDYANH | GISWNSGSILYADSVK | VGRVGGYFDY | ND ND ND | 0/9 |
| GFTFDWYRMH | GISWNSGSIGYFDSVK | VGRGGGYFDY | 5.88 5.36 ND | 1/9 (4.92) |
| GFTFDDYAMH | GISWFSGSIGYADSVF | VGRGGGYFDL | ND ND ND | 0/9 |
| GFTFDYYAMH | GISWNSGSIGYAESVK | VKRGGGYFDY | 0.84 0.32 -0.59 | 1/9 (4.17) |

The first 5 variants above that were never detected:

| CDR-H1 | CDR-H2 | CDR-H3 | replicates, log10 nM | signal with controls |
|---|---|---|---|---|
| GFTFDDYAMH | GISWNSGSIGMADSVK | VHQGGGYFDY | ND ND ND | 0/9 |
| GFTFDDYAMH | GISWNSGSIGYADSFK | VGRGGGYHDA | ND ND ND | 1/9 (3.42) |
| LFTFDDYAMH | GISWNSGSIGYADSVK | VGRGGGYFDY | ND ND ND | 4/9 (5.13) |
| PFTFDDYAMH | GISWNSGSIHYADSVK | PGRGGGYFDY | ND ND ND | 1/9 (4.07) |
| GFTFDDYAMH | GISWNSISIPYADSKK | VGRGGGYFDY | ND ND ND | 0/9 |

For reference, the parent read 1.86 as the reference entry and 0.88 as a member of this library. Background: pairings of library AAYL51 with three empty control strains gave a value in 21% of cases (median 4.54, 5th percentile 3.26). Values in that range, when seen in few replicates, are hard to tell from nonspecific mating. The control count says in how many pairings with the empty strains this scFv gave a signal, with their mean in brackets.